In test [1] the test system is cultured hippocampal neurons. Put plainly: Neuronal death by nuclei staining (Hoechst 33342), NMDA excitotoxicity. In kind it is cell-based, rat. The following applies: peptide treatment. As to the method: (§1) Dissociated cultures of rat cortical or hippocampal neurons were prepared from 18-d-old Sprague Dawley rat embryos as described previously (Mielke and Wang 2005). To obtain mixed cultures enriched with neurons, uridine (10 μM) and 5-Fluor-T-deoxyuridine (10 μM) were added to the culture medium at 3 d in vitro (DIV) and maintained for 48 h to inhibit non-neuronal cell proliferation before the cultures were returned to the normal culture medium. Mature neurons (12-14 DIV) were used for experiments. […]
(§2) Necrotic neuronal death was quantified by measuring lactate dehydrogenase (LDH) release 20 h after treatments using a Cyto Tox™ 96 assay kit (Promega™, Madison, Wis.). Absorbance readings were measured using a spectrophotometric microplate reader. Apoptotic neuronal death was determined by visualizing the nucleus condensation and fragmentation of neurons stained with Hoechst-33342™. Images were taken with a Leica DMIRE2™ fluorescence microscope. […] These observations were quantified by double-blind counting of apoptotic and total neurons in each visual field and expressed as percentage apoptosis. […] Data are expressed as the difference in apoptosis relative to control and are expressed as a percentage.

Test [2] deals with cultured hippocampal neurons. Put plainly: Neuronal death by LDH assay, NMDA excitotoxicity. It is filed as cell-based, rat. The following applies: peptide treatment. As for the experimental part: as §1, §2

Experimental findings from patent US9127079B2, “Inhibitors of phosphatase and tensin homolog (PTEN) conjugates” (THE UNIVERSITY OF BRITISH COLUMBIA, priority 2009, dated 2015) are described below.

Take KEIVSRNKRRYQED-YGRKKRRQRRR: the “NMDAR-mediated cell death, nuclei staining” value in test [1] was “significantly prevents”. Further, the “NMDAR-mediated cell death, LDH assay” value in test [2] is recorded as “significantly prevents”.
